Measurements: US20100190751A1, “NOVEL COMBINATION OF NERAMEXANE FOR TREATMENT OF NERORDEGENERATIE DISORDERS” (MERZ PHARMA GmbH & CO. KGaA, priority 2007, published 2010)

Experiments:
[1] = test system: amytrophic lateral sclerosis (ALS); conditions: background statement; cited from earlier work
[2] = test system: SOD1(G93A) transgenic mouse model of ALS; conditions: both gender

**Q.** For `Nc1nc2ccc(OC(F)(F)F)cc2s1` [Riluzole, 2-amino-6-trifluromethoxybenzothiazole], which “Improvement of survival time as compared to placebo” value [1] is on record?
**A.** up to 90 days

**Q.** What about the “Disease Endstage - Survival, Median age” value [2] of the same compound?
**A.** 129.0 days

**Q.** What about the “Disease Endstage - Survival, Mean age” value ([2]; treatment from day 45, same doses as Table 1) of the same compound?
**A.** 130.8 days

**Q.** And the “Disease Endstage - Survival, Difference compared to control” value ([2]; versus vehicle control mean […])?
**A.** 1.5 days
